# Data as given in patent US12629419B2, “Prevention or mitigation of T-cell engaging agent-related adverse effects” (Hoffmann-La Roche Inc., priority 2020, dated 2026).
# System: CEA-TCB-induced cytokine release
# Experiment: CEA-TCB-induced cytokine release (Luminex, supernatants)
# Details: 10 nM CEA-TCB; escalating concentrations
compound,measurement,value
"CCS(=O)(=O)N1CC(CC#N)(n2cc(-c3ncnc4[nH]ccc34)cn2)C1 [baricitinib, Baricitinib]",IL-2,did not reduce
